# Measured values reported in paper PMC12186753 (ACS pharmacology & translational science, 2025).
# Chains of the proteins cited; added tags and fusions are not shown. Residues count along the entry.
# UniProt P00747, 97-580 limits assumed: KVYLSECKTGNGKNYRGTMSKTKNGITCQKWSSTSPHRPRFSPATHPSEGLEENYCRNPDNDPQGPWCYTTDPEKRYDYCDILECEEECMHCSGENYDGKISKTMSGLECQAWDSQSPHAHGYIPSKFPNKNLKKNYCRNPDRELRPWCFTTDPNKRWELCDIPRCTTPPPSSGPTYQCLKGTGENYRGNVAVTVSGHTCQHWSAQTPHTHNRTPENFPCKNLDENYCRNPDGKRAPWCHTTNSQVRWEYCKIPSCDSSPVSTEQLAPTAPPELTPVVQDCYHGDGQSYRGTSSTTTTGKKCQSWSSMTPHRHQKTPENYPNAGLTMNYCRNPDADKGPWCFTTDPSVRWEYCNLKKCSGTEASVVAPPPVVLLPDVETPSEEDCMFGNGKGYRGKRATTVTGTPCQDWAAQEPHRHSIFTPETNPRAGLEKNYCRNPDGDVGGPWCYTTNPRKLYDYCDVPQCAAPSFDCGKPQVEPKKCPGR
# UniProt P00747, 581-810 limits assumed: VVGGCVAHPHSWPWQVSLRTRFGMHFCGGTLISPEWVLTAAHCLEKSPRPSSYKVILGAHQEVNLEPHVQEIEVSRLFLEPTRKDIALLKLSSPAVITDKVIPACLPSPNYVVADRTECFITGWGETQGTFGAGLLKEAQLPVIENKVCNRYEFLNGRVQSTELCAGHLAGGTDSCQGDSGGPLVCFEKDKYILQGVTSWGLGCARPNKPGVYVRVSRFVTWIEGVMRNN
# Biological target: plasmin (Homo sapiens, UniProt P00747)
# Test: Plasmin inhibition assay with chromogenic substrate S-2251 (Dixon plot, Cornish-Bowden plot)
# Format: biochemical
smiles,measurement,value
NC[C@H]1CC[C@H](C(=O)NCCCC[C@H](NC(=O)[C@H]2CC[C@H](CN)CC2)C(N)=O)CC1,Mode of inhibition (Cornish-Bowden S/Vo vs I plot),weak competitive inhibitor
same,rp/n: relative potency/number of TXA units,1.7
same,rp: relative potency = Ki^TXA/Ki^multi,3.3
